Values of other authors as cited in US20250082647A1, “SPECIFIC DOSAGE OF PHENOTHIAZINE COMPOUNDS FOR USE IN TREATMENT OR PREVENTION OF ALZHEIMER'S DEMENTIA” (IMMUNGENETICS AG, priority 2022, published 2025).

The chains behind the UniProt entries cited, without tags or fusion partners. Where a name states a change or a piece, a line headed by the entry shows the natural chain unless it says otherwise.
UniProt O35379: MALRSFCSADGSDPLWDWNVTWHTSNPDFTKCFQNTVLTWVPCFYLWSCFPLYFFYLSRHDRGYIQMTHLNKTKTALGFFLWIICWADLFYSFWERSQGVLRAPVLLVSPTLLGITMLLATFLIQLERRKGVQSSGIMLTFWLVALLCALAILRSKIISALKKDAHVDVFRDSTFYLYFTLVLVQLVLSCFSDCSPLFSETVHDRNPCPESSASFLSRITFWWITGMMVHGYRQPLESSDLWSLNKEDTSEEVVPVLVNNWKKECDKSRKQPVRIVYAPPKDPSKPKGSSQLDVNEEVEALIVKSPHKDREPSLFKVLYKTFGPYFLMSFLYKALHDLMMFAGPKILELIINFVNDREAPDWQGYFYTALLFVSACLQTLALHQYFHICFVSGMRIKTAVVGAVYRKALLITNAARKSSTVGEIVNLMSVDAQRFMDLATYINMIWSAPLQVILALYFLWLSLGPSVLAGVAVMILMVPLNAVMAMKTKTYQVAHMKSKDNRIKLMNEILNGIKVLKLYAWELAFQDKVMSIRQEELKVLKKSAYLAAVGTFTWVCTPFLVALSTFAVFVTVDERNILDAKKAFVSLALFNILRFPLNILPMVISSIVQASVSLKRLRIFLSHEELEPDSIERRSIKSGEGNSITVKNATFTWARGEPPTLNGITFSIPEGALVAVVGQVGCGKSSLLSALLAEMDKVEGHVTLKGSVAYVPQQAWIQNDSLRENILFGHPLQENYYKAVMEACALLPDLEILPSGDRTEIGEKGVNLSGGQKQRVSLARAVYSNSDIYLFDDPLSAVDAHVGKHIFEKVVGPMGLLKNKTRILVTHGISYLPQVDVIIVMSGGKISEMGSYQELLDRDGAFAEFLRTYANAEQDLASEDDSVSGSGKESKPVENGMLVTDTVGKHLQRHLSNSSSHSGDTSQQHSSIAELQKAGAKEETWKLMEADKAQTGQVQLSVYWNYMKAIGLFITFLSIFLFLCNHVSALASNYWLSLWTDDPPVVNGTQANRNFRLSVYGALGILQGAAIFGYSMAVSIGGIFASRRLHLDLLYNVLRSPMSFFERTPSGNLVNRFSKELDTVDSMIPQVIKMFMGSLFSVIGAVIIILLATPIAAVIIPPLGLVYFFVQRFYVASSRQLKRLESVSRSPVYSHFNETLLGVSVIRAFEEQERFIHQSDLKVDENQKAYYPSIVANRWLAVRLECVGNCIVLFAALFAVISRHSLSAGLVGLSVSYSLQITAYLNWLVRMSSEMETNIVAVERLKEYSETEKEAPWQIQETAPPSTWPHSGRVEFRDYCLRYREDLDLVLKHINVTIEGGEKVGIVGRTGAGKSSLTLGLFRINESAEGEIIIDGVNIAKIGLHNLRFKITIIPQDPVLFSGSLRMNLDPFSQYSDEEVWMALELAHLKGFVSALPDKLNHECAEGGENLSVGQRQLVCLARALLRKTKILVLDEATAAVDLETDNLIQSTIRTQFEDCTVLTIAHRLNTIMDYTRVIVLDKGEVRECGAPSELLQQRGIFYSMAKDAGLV

Assays:
[1] = biological target: T1, transport protein ABCC1 (Mus musculus, UniProt O35379); conditions: mice; cited from earlier work
T1 construct: thiethylperazine has been proven effective in murine models of Alzheimer's disease (AD); host or cells: mice (murine models of Alzheimer's disease), blood-brain barrier endothelium

[2] = system: wild-type human BE(2)-m17 neuroblastoma cells; conditions: wild-type BE(2)-m17 cells incubated with fluorescent Abeta-42; cited from earlier work
[3] = system: ABCC1 overexpressing BE(2)-m17 cells; conditions: simultaneous overexpression of ABCC1 in BE(2)-m17 cells, fluorescent Abeta-42; cited from earlier work

In the case of `CCSc1ccc2c(c1)N(CCCN1CCN(C)CC1)c1ccccc1S2` [thiethylperazine, 2-(ethylsulfanyl)-10-[3-(4-methylpiperazin-1-yl)propyl]-10H-phenothiazine], the “activation of the transport protein ABCC1 that clears beta-amyloid from brains” value [1] is listed as “activates”, the “decrease of wild-type cells that efficiently took up Abeta-42” value [2] is listed as 29.6% and the “decrease of cells that efficiently took up Abeta-42” value [3] is listed as 44.4%.
